Measurements taken from patent US7659249B2, “Membrane-permeable NFAT inhibitory peptide” (Japan Science and Technology Agency, priority 2002, dated 2010).

Legend:
[1] = AoB rat, 1.5 mg/kg hypodermically every other day for 4 weeks
[2] = 10 mg/kg peptide comprising 11R-VIVIT and FITC, intraperitoneal, 6 hours after injection

Structure (SMILES): CC[C@H](C)[C@H](NC(=O)[C@@H](NC(=O)[C@@H]1CCCN1C(=O)[C@H](Cc1c[nH]cn1)NC(=O)[C@@H]1CCCN1C(=O)CNC(=O)[C@H](C)NC(=O)[C@H](CCSC)NC(=O)CNC(=O)CNC(=O)CNC(=O)[C@H](CCCNC(=N)N)NC(=O)[C@H](CCCNC(=N)N)NC(=O)[C@H](CCCNC(=N)N)NC(=O)[C@H](CCCNC(=N)N)NC(=O)[C@H](CCCNC(=N)N)NC(=O)[C@H](CCCNC(=N)N)NC(=O)[C@H](CCCNC(=N)N)NC(=O)[C@H](CCCNC(=N)N)NC(=O)[C@H](CCCNC(=N)N)NC(=O)[C@H](CCCNC(=N)N)NC(=O)[C@@H](N)CCCNC(=N)N)C(C)C)C(=O)N[C@H](C(=O)N[C@H](C(=O)N[C@H](C(=O)NCC(=O)N1CCC[C@H]1C(=O)N[C@@H](Cc1c[nH]cn1)C(=O)N[C@@H](CCC(=O)O)C(=O)N[C@@H](CCC(=O)O)C(=O)O)[C@@H](C)O)[C@@H](C)CC)C(C)C [11R-VIVIT]
- BUN [1]: 16.6 ± 2.71 mg/dL
- Cr [1]: 0.28 ± 0.02 mg/dL
- GOT [1]: 99.2 ± 6.24 IU/l
- GPT [1]: 55.8 ± 9.95 IU/l
- fluorescence of FITC in sections of the spleen, the lymph node, the liver, the kidney and the heart [2]: fluorescence of FITC was observed
